{"source": "patent US20200064333A1", "about": "“ECM COMPOSITION, TUMOR MICROENVIRONMENT PLATFORM AND METHODS THEREOF” (MITRA RXDX INDIA PRIVATE LIMITED, priority 2011, published 2020)", "key": {"[1]": {"system": "stage III/IV colon cancer", "conditions": "cited from earlier work"}, "[2]": {"system": "tumor explants", "experiment": "Explant cell viability (MTT / WST)", "conditions": "HNSCC biopsy explants, three days, vs DMSO control, n=20, p<0.001 (FIG. 9(e))"}, "[3]": {"system": "Glioblastoma, Ca-Ovary, Ca-Breast, Ca-Oesophagus, Ca-Pancreas, Ca-Stomach", "experiment": "Clinical outcome of patients (PETCT or CT), other solid cancers", "assay_type": "in vivo, human", "conditions": "evaluated at the end of 6-8 months by PETCT or CT"}, "[4]": {"system": "HNSCC patient tumors grown in immunocompromised mice", "experiment": "Therapeutic efficacy in human tumor xenografts (HTX) of SCID/nude mice", "assay_type": "in vivo", "conditions": "three times a week for about 23 days, vs normal saline, p<0.001 (FIG. 9(g))"}}, "data": [{"substance": "Cetuximab", "values": [{"measurement": "patient respond clinically", "setting": "[1]", "value": "10-30%"}, {"measurement": "cell viability by WST", "setting": "[2]", "value": "inhibition of cell viability"}, {"measurement": "Clinical readout RECIST", "setting": "[3]; CRC patients", "value": 2}, {"measurement": "Clinical readout RECIST", "setting": "[3]; Ca-Breast patients", "value": 3}, {"measurement": "tumor growth in vivo (tumor volume)", "setting": "[4]", "value": "tumor growth inhibition"}]}]}
